From patent US8765173B2, “Drug delivery system for administration of a water soluble, cationic and amphiphilic pharmaceutically active substance” (Ardenia Investments, Ltd., priority 2007, dated 2014) come the findings set out here.

In the data set the test system is SPF Wistar rats of the strain HanTac:WH (GALAS). To be noted: 6 mg/kg intravenous once weekly.

For `COc1cccc2c1C(=O)c1c(O)c3c(c(O)c1C2=O)C[C@@](O)(C(=O)CO)C[C@@H]3O[C@H]1C[C@H](N)[C@H](O)[C@H](C)O1` [Doxorubicin], the fluid-filled abdomens result is on record as “only observed in the positive control Group 2”.
